The chains behind the UniProt entries cited, without tags or fusion partners. Where a name states a change or a piece, a line headed by the entry shows the natural chain unless it says otherwise.
UniProt Q06187, whole entry L528W: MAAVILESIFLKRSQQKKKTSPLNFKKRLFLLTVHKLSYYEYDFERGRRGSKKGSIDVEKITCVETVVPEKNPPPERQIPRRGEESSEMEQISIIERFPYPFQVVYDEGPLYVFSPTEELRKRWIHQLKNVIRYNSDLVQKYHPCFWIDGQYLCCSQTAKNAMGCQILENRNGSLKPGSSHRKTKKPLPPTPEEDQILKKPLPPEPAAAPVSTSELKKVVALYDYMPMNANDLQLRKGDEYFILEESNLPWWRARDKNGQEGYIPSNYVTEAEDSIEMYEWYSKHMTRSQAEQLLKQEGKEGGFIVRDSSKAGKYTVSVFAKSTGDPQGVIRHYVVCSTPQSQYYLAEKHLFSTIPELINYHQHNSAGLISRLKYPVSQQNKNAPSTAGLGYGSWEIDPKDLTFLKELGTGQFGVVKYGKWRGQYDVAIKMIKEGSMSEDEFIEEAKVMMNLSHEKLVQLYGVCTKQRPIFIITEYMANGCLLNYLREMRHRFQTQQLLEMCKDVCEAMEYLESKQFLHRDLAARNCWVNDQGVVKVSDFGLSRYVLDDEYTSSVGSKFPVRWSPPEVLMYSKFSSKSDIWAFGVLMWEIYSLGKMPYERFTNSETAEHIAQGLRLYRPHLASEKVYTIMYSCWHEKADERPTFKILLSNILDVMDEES
UniProt Q06187, whole entry: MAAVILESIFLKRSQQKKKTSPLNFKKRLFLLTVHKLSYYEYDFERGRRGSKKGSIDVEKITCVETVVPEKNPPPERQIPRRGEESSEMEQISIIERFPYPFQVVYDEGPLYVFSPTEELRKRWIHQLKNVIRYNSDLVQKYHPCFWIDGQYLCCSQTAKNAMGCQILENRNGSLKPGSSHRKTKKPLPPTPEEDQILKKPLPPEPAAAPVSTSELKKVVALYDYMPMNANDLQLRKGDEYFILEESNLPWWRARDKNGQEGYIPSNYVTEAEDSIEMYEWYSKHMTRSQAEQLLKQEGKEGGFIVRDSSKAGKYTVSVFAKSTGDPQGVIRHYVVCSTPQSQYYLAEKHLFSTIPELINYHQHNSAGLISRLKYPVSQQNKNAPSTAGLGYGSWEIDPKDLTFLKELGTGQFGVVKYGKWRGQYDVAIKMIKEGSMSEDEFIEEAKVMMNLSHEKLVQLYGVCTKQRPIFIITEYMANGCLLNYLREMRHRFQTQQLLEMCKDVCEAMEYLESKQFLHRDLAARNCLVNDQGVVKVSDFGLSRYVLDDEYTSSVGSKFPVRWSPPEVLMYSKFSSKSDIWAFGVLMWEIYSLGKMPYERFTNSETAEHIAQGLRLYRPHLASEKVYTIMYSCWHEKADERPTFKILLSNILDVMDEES

According to EP4755887A1, “POLYCYCLIC FUSED-RING BTK DEGRADATION AGENT AND USE THEREOF IN MEDICINE” (Haisco Pharmaceutical Group Co., Ltd., priority 2023, dated 2025):

Tests used:
TMD-8 cells = test: TMD-8 cell proliferation inhibitory activity test; conditions: read-out: IC50 values for inhibiting TMD-8 cell proliferation, 72 hours, CellTiter-Glo
Method: TMD-8 is a human lymphoma cell line that expresses BTK protein and is used to evaluate the efficacy of compounds. TMD-8 cells were maintained in RPMI-1640 + 10% FBS + 1% penicillin-streptomycin solution, and cultured in a 37°C, 5% CO2 incubator. The cells were seeded into a 96-well culture plate (Biosharp, BS-MP-96W) at a density of 3,000 cells per well. After seeding, compounds at various concentrations were added, with a final volume of 100 µL per well, and the plate was incubated for 72 hours in the 37°C, 5% CO2 incubator. Following incubation, 50 µL of a detection solution (CellTiter-Glo®, Promega, G7573) was added to each well, and the plate was uniformly mixed for 2 minutes and incubated at room temperature for 10 minutes. The chemiluminescence reading was then measured using a microplate reader (Molecular Devices, SpectraMax Paradigm). The inhibition rate of cell proliferation by the compounds was calculated according to Equation (1), where RLU compound represents the readout from the compound-treated well, RLU control represents the readout from the DMSO vehicle control well, and RLU blank represents the readout from the cell-free well. […] The concentration-response curve was generated by fitting the data to a four-parameter equation, and the IC50 values for the compound's inhibition of cell proliferation were calculated. […]

BTK = BTK (Homo sapiens, UniProt Q06187); test: Detection of BTK degradation in Mino cells; conditions: read-out: DC50 values for BTK degradation in Mino cells, 6 hours, automated western blot
BTK L528W = BTK L528W (Homo sapiens, UniProt Q06187, L528W); test: Detection of BTK degradation in REC-1 BTK L528W mutant cells; conditions: for BTK degradation rate %: 5 nM concentration, REC-1 BTK L528W cells, 6 hours; for DC50: read-out: DC50 values for BTK degradation in REC-1 BTK L528W cells, 6 hours, automated western blot
Caco-2 cells = test: Caco2 permeability test; conditions: Caco-2 monolayer, 2 µM, 2 hours, pH 7.4

Compound	IC50 (TMD-8 cells)	DC50 (BTK)	BTK degradation rate % (BTK L528W)	DC50 (BTK L528W)	Efflux Ratio (Caco-2 cells)	Mean Papp A to B (Caco-2 cells)	Mean Papp B to A (Caco-2 cells)
CN1CCN([C@@H]2CCCN(c3cnc(C(N)=O)c(Nc4ccc(N5CCC(CN6CCN7c8cc(F)c(C(=O)N[C@H]9CCC(=O)NC9=O)cc8CC[C@@H]7C6)CC5)cc4)n3)C2)C1=O	< 20 nM	< 10 nM	>90%	< 5 nM	0.296	2.20 10^-6 cm/s	0.652 10^-6 cm/s
CN1CCN([C@@H]2CCCN(c3cnc(C(N)=O)c(Nc4ccc(N5CCC(CN6CCN7c8cc(F)c(C(=O)N[C@H]9CCC(=O)NC9=O)cc8CC[C@H]7C6)CC5)cc4)n3)C2)C1=O	< 20 nM	< 10 nM	>90%	< 5 nM	0.481	2.26 10^-6 cm/s	1.09 10^-6 cm/s
